Chains of the proteins cited; added tags and fusions are not shown. Lines headed by an entry give the natural chain unless they say otherwise; changes in a name come on top.
UniProt P29597: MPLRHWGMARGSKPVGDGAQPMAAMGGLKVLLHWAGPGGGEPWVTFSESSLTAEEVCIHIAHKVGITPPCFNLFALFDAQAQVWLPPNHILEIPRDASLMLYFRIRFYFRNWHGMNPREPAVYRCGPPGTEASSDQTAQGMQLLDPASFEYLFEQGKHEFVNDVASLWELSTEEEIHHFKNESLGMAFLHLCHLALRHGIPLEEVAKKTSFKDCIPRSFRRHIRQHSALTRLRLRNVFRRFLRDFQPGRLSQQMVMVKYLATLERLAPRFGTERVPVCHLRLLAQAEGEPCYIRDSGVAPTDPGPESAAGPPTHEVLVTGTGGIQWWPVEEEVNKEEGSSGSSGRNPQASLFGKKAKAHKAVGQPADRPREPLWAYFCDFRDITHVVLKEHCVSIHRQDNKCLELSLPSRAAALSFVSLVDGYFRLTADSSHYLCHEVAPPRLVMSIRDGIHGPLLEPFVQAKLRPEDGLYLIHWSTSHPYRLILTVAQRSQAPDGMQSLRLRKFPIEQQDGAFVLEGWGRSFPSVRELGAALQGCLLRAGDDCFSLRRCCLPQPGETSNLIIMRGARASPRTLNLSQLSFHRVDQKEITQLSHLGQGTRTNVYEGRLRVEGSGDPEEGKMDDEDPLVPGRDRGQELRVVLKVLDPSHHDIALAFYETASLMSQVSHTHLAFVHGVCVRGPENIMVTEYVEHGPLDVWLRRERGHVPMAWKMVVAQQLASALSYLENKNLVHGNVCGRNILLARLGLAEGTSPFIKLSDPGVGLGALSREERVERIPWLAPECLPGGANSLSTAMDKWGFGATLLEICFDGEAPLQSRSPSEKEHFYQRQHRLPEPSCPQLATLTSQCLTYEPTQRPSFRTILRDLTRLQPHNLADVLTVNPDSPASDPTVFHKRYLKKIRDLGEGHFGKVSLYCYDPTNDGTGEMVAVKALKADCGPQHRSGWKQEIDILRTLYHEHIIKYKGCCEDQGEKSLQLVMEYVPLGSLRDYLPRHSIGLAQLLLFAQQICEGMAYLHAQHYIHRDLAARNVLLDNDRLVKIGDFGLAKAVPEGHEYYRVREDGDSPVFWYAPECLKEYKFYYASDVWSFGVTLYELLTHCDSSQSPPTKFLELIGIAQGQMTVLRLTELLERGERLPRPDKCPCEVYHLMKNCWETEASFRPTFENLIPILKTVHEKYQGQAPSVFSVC

According to patent publication US9475813B2 (priority 2013, dated 2016):

Molecular target: Tyk2 (Homo sapiens (Human), UniProt P29597)
Assay: biochemical

## O=C1c2cnc3[nH]ccc3c2N([C@H]2CC[C@H](CNCC(F)(F)F)CC2)CN1CC1CCCO1 (relative stereo) [Ex 26, 3-[(tetrahydrofuran-2-yl)methyl]-1-(trans-4-{[(2,2,2-trifluoroethyl)amino]methyl}cyclohexyl)-2,3-dihydro-1H-pyrrolo[3′,2′: 5,6]pyrido[4,3-d]pyrimidin-4(7H)-one]
  IC50: 100 nM

## CSCN1CN([C@H]2CC[C@H](CNCC(F)(F)F)CC2)c2c(cnc3[nH]ccc23)C1=O [Ex 21, 3-[(methylthio)methyl)-1-(trans-4-{[(2,2,2-trifluoroethyl)amino]methyl}cyclohexyl)-2,3-dihydro-1H-pyrrolo[3′,2′: 5,6]pyrido[4,3-d]pyrimidin-4(7H)-one]
  IC50: 160 nM
